Reported logP (octanol/water) values for industrial, environmental and drug-like chemicals

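The numbers are reported measurements, compiled and curated for the OPERA QSAR suite. One number stands for a compound and property, with no spread given. How each value was measured is not recorded, so precision varies. The measured form (salt, isomer or mixture) is not always the one drawn. Unmarked limits or estimates from the upstream databases cannot be ruled out.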

logP is the log10 of the octanol-water partition coefficient; higher is more lipophilic.
"–" marks a cell with nothing listed here.
"via" names the databases from which the curators took the value.

{"smiles": "Clc1cccc(Nc2ccccc2)c1", "name": "3-Chlorodiphenylamine", "log Kow": "3.92", "via": "OCHEM"}
{"smiles": "CC1=NN(c2ccc(S(=O)(=O)[O-])cc2)C(=O)C1/N=N/c1cc([N+](=O)[O-])cc(Cl)c1O.[Na+]", "stereo": "stereo partly drawn", "log Kow": "-5.5", "via": "eChemPortal"}
{"smiles": "CCCCCCCS", "name": "1-Heptanethiol", "log Kow": "3.7", "via": "PubChem"}
{"smiles": "COC(=O)[C@@H](C)O", "name": "(+)-Methyl lactate", "log Kow": "-0.2", "via": "eChemPortal"}
{"smiles": "O=C(Nc1cc(S(=O)(=O)[O-])cc2cc(S(=O)(=O)[O-])c(/N=N/c3ccc4c(CNc5nc(F)nc(F)c5Cl)cccc4c3S(=O)(=O)[O-])c(O)c12)c1ccccc1.[Li+].[Na+].[Na+]", "log Kow": "-3.6", "via": "eChemPortal"}
{"smiles": "O[C@H]1O[C@H](COCc2ccccc2)[C@@H](OCc2ccccc2)[C@H](OCc2ccccc2)[C@H]1OCc1ccccc1", "log Kow": "5.9", "via": "eChemPortal"}
{"smiles": "C=CC(=O)OCCCCCCCCCCOC(=O)C=C", "name": "1,10-Decanediyl diacrylate", "log Kow": "4.9", "via": "eChemPortal"}
{"smiles": "OCC#CCO", "name": "2-Butyne-1,4-diol", "log Kow": "-0.73", "via": "PubChem, eChemPortal"}
{"smiles": "CN(C)CCCN", "name": "3-(Dimethylamino)propylamine", "log Kow": "-0.352", "via": "PubChem, eChemPortal"}
{"smiles": "C[C@H](Cn1cnc2c(N)ncnc21)OCP(=O)(O)O", "name": "Tenofovir", "log Kow": "-1.6", "via": "PubChem"}
{"smiles": "CC(C)(C)NCC(O)COc1cccc2c1CCC(=O)N2", "stereo": "stereo not drawn", "name": "Carteolol", "log Kow": "1.1", "via": "PubChem"}
{"smiles": "CN(N=O)C(=O)N[C@@H](C=O)[C@@H](O)[C@@H](O)[C@H](O)CO", "name": "Epistreptocin", "log Kow": "-0.89", "via": "OCHEM"}
{"smiles": "CC(CN=Cc1ccccc1O)N=Cc1ccccc1O", "stereo": "stereo not drawn", "log Kow": "3.6", "via": "eChemPortal"}
{"smiles": "Oc1cc(O)c(Cl)cc1Cl", "name": "4,6-Dichloro-1,3-benzenediol", "log Kow": "2.32", "via": "OCHEM"}
{"smiles": "O=C(O)c1ccccc1C(=O)c1ccccc1", "name": "Benzoic acid, 2-benzoyl-", "log Kow": "2.18", "via": "eChemPortal"}
{"smiles": "CC(C)CC(C)O", "stereo": "stereo not drawn", "name": "4-Methyl-2-pentanol", "log Kow": "1.43", "via": "PubChem"}
{"smiles": "CN=C(O)C(C)N=C(C)O", "stereo": "stereo not drawn", "name": "2-[(1-Hydroxyethylidene)amino]-N-methylpropanimidic acid", "log Kow": "-1.21", "via": "OCHEM"}
{"smiles": "CC1CN(C(=O)c2ccccc2)CCN1", "stereo": "stereo not drawn", "log Kow": "0.35", "via": "OCHEM"}
{"smiles": "C[N+](C)=C1C=CC(=C2C=C(c3ccc(N)cc3)SC(c3ccc(N)cc3)=C2)C=C1", "log Kow": "1.9", "via": "OCHEM"}
{"smiles": "C=CCC(C)C", "name": "4-Methyl-1-pentene", "log Kow": "3.375", "via": "OCHEM, eChemPortal"}
{"smiles": "Cc1nn(-c2ccccc2)c(N)c1/N=N/c1cc(Cl)c(S(=O)(=O)[O-])cc1Cl.[Li+]", "log Kow": "-0.034", "via": "eChemPortal"}
{"smiles": "NC(CO)(CO)CO.O=C(c1ccccc1)c1ccc2n1CCC2C(=O)O", "stereo": "stereo not drawn", "name": "Ketorolac tromethamine", "log Kow": "-0.59", "via": "OCHEM"}
{"smiles": "O=[N+]([O-])c1ccc2c(/N=N/c3c([O-])ccc4ccccc34)c([O-])cc(S(=O)(=O)[O-])c2c1.O=[N+]([O-])c1ccc2c(/N=N/c3c([O-])ccc4ccccc34)c([O-])cc(S(=O)(=O)[O-])c2c1.[Cr+3].[Na+].[Na+].[Na+]", "name": "C.I. Acid Black 172", "log Kow": "-1.74", "via": "eChemPortal"}
{"smiles": "Cc1ccc(S(=O)(=O)O)cc1.O=C(O)c1cccnc1", "name": "3-Pyridinecarboxylic acid, 4-methylbenzenesulfonate", "log Kow": "0.36", "via": "OCHEM"}
{"smiles": "O=C(Nc1ccc(S(=O)(=O)[O-])c2cc(S(=O)(=O)[O-])c(/N=N/c3ccc4c(CNc5nc(F)nc(F)c5Cl)cccc4c3S(=O)(=O)[O-])c(O)c12)c1ccccc1.[Li+].[Na+].[Na+]", "log Kow": "-0.2", "via": "eChemPortal"}
{"smiles": "O=S(=O)([O-])c1cccc(/N=N/c2ccc(Nc3ccccc3)cc2)c1.[Na+]", "name": "C.I. Acid Yellow 36, monosodium salt", "log Kow": "0.137", "via": "eChemPortal"}
{"smiles": "CC1=C(C(=O)O)N2C(=O)[C@@H](NC(=O)[C@H](N)c3ccc(O)cc3)[C@H]2SC1", "name": "Cefadroxil", "log Kow": "-2.06", "via": "OCHEM"}
{"smiles": "COc1cc(CNC(=O)CCCC/C=C/C(C)C)ccc1O", "name": "Capsaicin", "log Kow": "3.04", "via": "PubChem"}
{"smiles": "Cc1ccc(Cl)cc1NC(=O)c1cc2ccccc2cc1O", "log Kow": "2.8", "via": "eChemPortal"}
{"smiles": "CC(C)(C)CCCO", "name": "1-Pentanol, 4,4-dimethyl- (8CI)(9CI)", "log Kow": "2.39", "via": "OCHEM"}
{"smiles": "O[Si](c1ccccc1)(c1ccccc1)c1ccccc1", "name": "Triphenylsilanol", "log Kow": "4.96", "via": "OCHEM"}
{"smiles": "O=c1ccn(O)c2ccccc12", "name": "1-Hydroxyquinolin-4(1H)-one", "log Kow": "-0.47", "via": "OCHEM"}
{"smiles": "CCCCCCCC=O", "name": "Octanal", "log Kow": "3.5", "via": "PubChem, eChemPortal"}
{"smiles": "C1CN(CCOCCN2CCOCC2)CCO1", "name": "4,4'-(Oxydiethylene)bis(morpholine)", "log Kow": "0.5", "via": "eChemPortal"}
{"smiles": "CC(C)(c1ccc(OS(=O)(=O)c2ccccc2/N=N/c2c(N)ccc3c(S(=O)(=O)[O-])cccc23)cc1)c1ccc(OS(=O)(=O)c2ccccc2/N=N/c2c(N)ccc3c(S(=O)(=O)[O-])cccc23)cc1.[Na+].[Na+]", "log Kow": "1.76", "via": "eChemPortal"}
{"smiles": "CCCCCCCCCCCCCN", "name": "Tridecylamine", "log Kow": "5.1", "via": "OCHEM"}
{"smiles": "NNc1c(Cl)cc(Cl)cc1Cl", "name": "Hydrazine, (2,4,6-trichlorophenyl)-", "log Kow": "2.23", "via": "OCHEM, eChemPortal"}
{"smiles": "CCOC(=O)c1cnc2n(c1=O)CCC(C)C2", "stereo": "stereo not drawn", "log Kow": "0.66", "via": "OCHEM"}
{"smiles": "CCCCCCOC(=O)c1cc(=O)[nH]c(=O)[nH]1", "name": "Hexyl 2,6-dioxo-1,2,3,6-tetrahydropyrimidine-4-carboxylate", "log Kow": "1.76", "via": "OCHEM"}

The last 2 entries again:

| compound | name | log Kow | via |
|---|---|---|---|
| CCOC(=O)c1cnc2n(c1=O)CCC(C)C2 (stereo not drawn) | – | 0.66 | OCHEM |
| CCCCCCOC(=O)c1cc(=O)[nH]c(=O)[nH]1 | Hexyl 2,6-dioxo-1,2,3,6-tetrahydropyrimidine-4-carboxylate | 1.76 | OCHEM |

Values as listed in the OPERA 2.9 repository of K. Mansouri.